“Also recorded” adds a separate entry of the source.
System: human myelogenous leukemic cell line K562
Test: Assay 1: Short-term growth inhibition viability assay (CellTiter-Blue)
Assay type: cell-based
Settings: K562 cells, FIG. 2A
Protocol: Cells were seeded into 96-well format (e.g. 2000 cells/well for K562, Mjs, or U2O cells). 24 hours after seeding, cells were treated with indicated compounds for 2 hours at various concentrations. Subsequently, compounds were removed, and cells were left to grow for an additional 72 hours. Cell viability was measured using the CellTiter-Blue viability assay (Promega). Relative survival was normalized to the untreated control and corrected for background signal.
K562 cells (B. Pang, Leiden University Medical Center, the Netherlands) were maintained in RPMI-1640 medium supplemented with 8% FCS. MelJuSo cells were maintained in IMDM supplemented with 8% FCS. MelJuSo cells stably expressing PAGFP-H2A were maintained in IMDM supplemented with 8% FCS and G-418, as described in Pang, B., Qiao, X., Janssen, L. et al. Nat Commun 4, 1908 (2013). U2Os cells (ATCC® HTB-96) were maintained in DMEM medium supplemented with 8% FCS. Cell lines were maintained in a humidified atmosphere of 5% CO2 at 37°C, regularly tested for the absence of mycoplasma and the origin of cell lines was validated using STR analysis.
Assay 1. Anthracyclines are often used in the treatment of acute myeloid leukaemia and other haematological malignancies. […] The data is recorded in FIG. 2A where the IC50 values for all compounds are plotted. […]

CC(=O)[C@]1(O)Cc2c(O)c3c(c(O)c2[C@@H](O[C@H]2C[C@H](N(C)C)[C@H](O)[C@H](C)O2)C1)C(=O)c1ccccc1C3=O [Compound 18, N,N-dimethylidarubicin]
cytotoxicity (in words, compared with reference anthracyclines): considerably more cytotoxic than doxorubicin (1); also recorded: improved or comparable toxicity
